Test results published in patent US10214512B2, “Factor XIA inhibitors” (MERCK SHARP & DOHME CORP., priority 2015, dated 2019).

Amino acid sequences for entries named in this document (tags omitted). Residues count along the entry.
UniProt P03951, 19-387 partner: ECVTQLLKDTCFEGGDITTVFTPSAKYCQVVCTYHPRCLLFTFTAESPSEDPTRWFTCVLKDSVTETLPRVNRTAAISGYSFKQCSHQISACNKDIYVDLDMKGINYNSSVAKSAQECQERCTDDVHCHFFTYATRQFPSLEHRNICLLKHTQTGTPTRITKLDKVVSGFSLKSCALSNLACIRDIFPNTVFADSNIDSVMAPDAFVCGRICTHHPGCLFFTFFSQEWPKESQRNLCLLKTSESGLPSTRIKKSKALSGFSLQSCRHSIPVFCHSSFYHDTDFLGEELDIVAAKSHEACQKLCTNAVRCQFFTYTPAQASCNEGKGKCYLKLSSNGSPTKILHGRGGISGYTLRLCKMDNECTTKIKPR
UniProt P03951, 388-625: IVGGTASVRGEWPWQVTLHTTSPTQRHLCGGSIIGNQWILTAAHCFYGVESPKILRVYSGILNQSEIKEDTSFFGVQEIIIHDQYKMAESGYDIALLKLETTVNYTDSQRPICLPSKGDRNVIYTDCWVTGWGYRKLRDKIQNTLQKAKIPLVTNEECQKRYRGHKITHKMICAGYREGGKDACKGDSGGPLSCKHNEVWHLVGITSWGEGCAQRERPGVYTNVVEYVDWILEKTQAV

Target: purified human Factor XIa (Homo sapiens (Human), UniProt P03951)
Test: Factor XIa Assay
Format: biochemical
Settings: purified human Factor XIa 40 pM; substrate Z-Gly-Pro-Arg-AFC 100 μM; 50 mM HEPES pH 7.4; read-out: Human FXIa Ki
Protocol: The effectiveness of a compound of the present invention as an inhibitor of Coagulation Factor XIa can be determined using a relevant purified serine protease, and an appropriate synthetic substrate. The rate of hydrolysis of the chromogenic or fluorogenic substrate by the relevant serine protease was measured both in the absence and presence of compounds of the present invention. Assays were conducted at rt or at 37° C. […] A decrease in the rate of fluorescence change in the presence of inhibitor is indicative of enzyme inhibition. Such methods are known to one skilled in the art. The results of this assay are expressed as the inhibitory constant, Ki.
Factor XIa determinations were made in 50 mM HEPES buffer at pH 7.4 containing 150 mM NaCl, 5 mM CaCl2, and 0.1% PEG 8000 (polyethylene glycol; JT Baker or Fisher Scientific). Determinations were made using purified human Factor XIa at a final concentration of 40 pM (Sekisui Diagnostics) and he synthetic substrate, Z-Gly-Pro-Arg-AFC, TFA salt (Sigma #C0980) at a concentration of 100 μM.
Times required to achieve equilibration between enzyme and inhibitor were determined in control experiments. Initial velocities of product formation in the absence (Vo) or presence of inhibitor (Vi) were measured. Assuming competitive inhibition, and that unity is negligible compared Km/[S], [I]/e, and [I]/e (where [S], [I], and e respectively represent the total concentrations, of substrate, inhibitor and enzyme), the equilibrium constant (Ki) for dissociation of the inhibitor from the enzyme can be obtained from the dependence of Vo/Vi on [I] shown in the following equation.

SMILES	Ki [nM]
COC(=O)Nc1ccc2c(c1)NC(=O)CCCC[C@H](c1ccc(-c3c(F)cccc3-n3cc(C(F)(F)F)cn3)c[n+]1[O-])c1nc-2c(C)[nH]1 (single isomer, unassigned) [Example 137]	2.5
COC(=O)Nc1ccc2c(c1)NC(=O)[C@@H](C)CCC[C@@H](c1ccc(-c3c(F)cccc3F)c[n+]1[O-])c1nc-2c(C2CC2)[nH]1 (single isomer, unassigned) [Example 145-b]	45.1
COC(=O)Nc1ccc2c(c1)NC(=O)[C@H](C)CCC[C@@H](c1ccc(-c3c(F)cccc3F)c[n+]1[O-])c1nc-2c(C2CC2)[nH]1 (single isomer, unassigned) [Example 145-d]	66.2
CCc1[nH]c2nc1-c1ccc(NC(=O)OC)cc1NC(=O)[C@H](C)CCC[C@H]2c1ccc(-c2c(F)cccc2OC(F)F)c[n+]1[O-] (single isomer, unassigned) [Example 146-b]	12.1
CCc1[nH]c2nc1-c1ccc(NC(=O)OC)cc1NC(=O)[C@@H](C)CCC[C@H]2c1ccc(-c2c(F)cccc2OC(F)F)c[n+]1[O-] (single isomer, unassigned) [Example 146-d]	73.9
COC(=O)Nc1ccc2c(c1)NC(=O)[C@@H](C)CCC[C@@H](c1ccc(-c3cc(F)ccc3OC(F)(F)F)c[n+]1[O-])c1nc-2c(C)[nH]1 (single isomer, unassigned) [Example 149-b]	7.9
COC(=O)Nc1ccc2c(c1)NC(=O)[C@@H](C)CCC[C@H](c1ccc(-c3cc(F)ccc3OC(F)(F)F)c[n+]1[O-])c1nc-2c(C)[nH]1 (single isomer, unassigned) [Example 149-c]	0.69
COC(=O)Nc1ccc2c(c1)NC(=O)[C@H](C)CCC[C@@H](c1ccc(-c3cc(F)ccc3OC(F)(F)F)c[n+]1[O-])c1nc-2c(C)[nH]1 (single isomer, unassigned) [Example 149-d]	60.1
COC(=O)Nc1ccc2c(c1)NC(=O)[C@@H](C)CCC[C@@H](c1ccc(-c3c(OC(F)F)ccc(F)c3F)c[n+]1[O-])c1nc-2c(C)[nH]1 (single isomer, unassigned) [Example 150-b]	8.49
COC(=O)Nc1ccc2c(c1)NC(=O)[C@H](C)CCC[C@@H](c1ccc(-c3c(OC(F)F)ccc(F)c3F)c[n+]1[O-])c1nc-2c(C)[nH]1 (single isomer, unassigned) [Example 150-d]	20
COC(=O)Nc1ccc2c(c1)NC(=O)CC[C@H](C)C[C@@H](c1ccc(-c3c(F)ccc(Cl)c3F)c[n+]1[O-])c1nc-2c(C)[nH]1 (single isomer, unassigned) [Example 151-d]	> 875
COC(=O)Nc1ccc2c(c1)NC(=O)CC[C@H](C)C[C@H](c1ccc(-c3c(F)cccc3OC(F)F)c[n+]1[O-])c1nc-2c(C)[nH]1 (single isomer, unassigned) [Example 152-b]	5.5
COC(=O)Nc1ccc2c(c1)NC(=O)CC[C@@H](C)C[C@@H](c1ccc(-c3c(F)cccc3OC(F)F)c[n+]1[O-])c1nc-2c(C)[nH]1 (single isomer, unassigned) [Example 152-c]	43.6
COC(=O)Nc1ccc2c(c1)NC(=O)CC[C@H](C)C[C@@H](c1ccc(-c3c(F)cccc3OC(F)F)c[n+]1[O-])c1nc-2c(C)[nH]1 (single isomer, unassigned) [Example 152-d]	104
C[C@@H]1CCC[C@@H](c2ccc(-c3cc(Cl)ccc3-n3cc(C(F)(F)F)cn3)c[n+]2[O-])c2cccc(c2)-c2c(cnn2C(F)F)NC1=O (single isomer, unassigned) [Example 168-b]	> 875
C[C@@H]1CCC[C@H](c2ccc(-c3c(F)ccc(F)c3F)c[n+]2[O-])c2cccc(c2)-c2c(cnn2C(F)F)NC1=O (single isomer, unassigned) [Example 170-a]	195

These reach a lower Ki. Values come first.

Ki [nM]	SMILES
0.14	COC(=O)Nc1ccc2c(c1)NC(=O)[C@H](C)CCC[C@H](c1ccc(-c3c(F)cccc3F)c[n+]1[O-])c1nc-2c(C2CC2)[nH]1 (single isomer, unassigned) [Example 145-a]
0.29	COC(=O)Nc1ccc2c(c1)NC(=O)[C@@H](C)CCC[C@H](c1ccc(-c3c(F)cccc3F)c[n+]1[O-])c1nc-2c(C2CC2)[nH]1 (single isomer, unassigned) [Example 145-c]
0.14	CCc1[nH]c2nc1-c1ccc(NC(=O)OC)cc1NC(=O)[C@H](C)CCC[C@@H]2c1ccc(-c2c(F)cccc2OC(F)F)c[n+]1[O-] (single isomer, unassigned) [Example 146-a]
0.29	CCc1[nH]c2nc1-c1ccc(NC(=O)OC)cc1NC(=O)[C@@H](C)CCC[C@@H]2c1ccc(-c2c(F)cccc2OC(F)F)c[n+]1[O-] (single isomer, unassigned) [Example 146-c]
0.17	COC(=O)Nc1ccc2c(c1)NC(=O)[C@H](C)CCC[C@H](c1ccc(-c3cc(F)ccc3OC(F)(F)F)c[n+]1[O-])c1nc-2c(C)[nH]1 (single isomer, unassigned) [Example 149-a]
0.13	COC(=O)Nc1ccc2c(c1)NC(=O)[C@H](C)CCC[C@H](c1ccc(-c3c(OC(F)F)ccc(F)c3F)c[n+]1[O-])c1nc-2c(C)[nH]1 (single isomer, unassigned) [Example 150-a]
0.37	COC(=O)Nc1ccc2c(c1)NC(=O)[C@@H](C)CCC[C@H](c1ccc(-c3c(OC(F)F)ccc(F)c3F)c[n+]1[O-])c1nc-2c(C)[nH]1 (single isomer, unassigned) [Example 150-c]
0.09	COC(=O)Nc1ccc2c(c1)NC(=O)CC[C@@H](C)C[C@H](c1ccc(-c3c(F)cccc3OC(F)F)c[n+]1[O-])c1nc-2c(C)[nH]1 (single isomer, unassigned) [Example 152-a]
